In publication PMC12631437, “Evaluation of the Activity of 4‑Quinolones against Multi-Life Stages of Plasmodium spp” (ACS Omega, 2025):

Test system: P. berghei sexual phases in An. stephensi
Assay: In vivo transmission-blocking assay, P. berghei infected CD1 mice, An. stephensi
Parameters: species or system Plasmodium berghei
Conditions: positive control, 25 mg/kg x 2/12h
Experimental: For this assay, a colony of An. stephensi was used. The lab-reared An. stephensi was kept under controlled conditions, with a temperature of 26 °C ± 1 °C, a 12/12 h light/dark cycle, a relative humidity of 70% ± 10%, and fed a 30% sugar solution as needed.
Female CD1 mice (4 to 6 weeks old) were infected by intraperitoneal inoculation (i.p.) containing 10 million erythrocytes infected with P. berghei expressing the GFP fluorescent protein. After 4 days, when parasites in the sexual stages were detected via Giemsa-stained blood smears, mice with similar gametocytemia and parasitemia were randomly divided into three groups of two animals each. The groups of two mices were treated orally with compound 1 at two doses of 50 mg/kg, spaced 12 h apart. […] Following the second dose, mice were anesthetized and placed in individual cages containing approximately 50 female A. stephensi mosquitoes, which had been starved for 24 h before the assay. Blood feeding lasted for 30 min, after which unfed mosquitoes were removed. Engorged females were maintained in an insectary at 21 ± 1 °C and 60% relative humidity, receiving a 30% glucose solution.
A group of 10 mosquitoes was set aside to assess sporozoite development in salivary glands, following a protocol similar to the one described previously, with dissections performed 21 days postblood meal. […]

COc1cc(NC(C)CCCN)c2ncccc2c1 (stereo not shown) [Primaquine, reference compound]
infection of mosquitoes that fed on treated mice: not infected
